Assay results from patent US9402826B2, “Neuronal pain pathway modulators” (The Trustees of Columbia University in the City of New York, priority 2006, dated 2016).
Like-named read-outs stand apart in the source and are kept apart here.

Chains of the proteins cited; added tags and fusions are not shown.
UniProt Q13976, whole entry: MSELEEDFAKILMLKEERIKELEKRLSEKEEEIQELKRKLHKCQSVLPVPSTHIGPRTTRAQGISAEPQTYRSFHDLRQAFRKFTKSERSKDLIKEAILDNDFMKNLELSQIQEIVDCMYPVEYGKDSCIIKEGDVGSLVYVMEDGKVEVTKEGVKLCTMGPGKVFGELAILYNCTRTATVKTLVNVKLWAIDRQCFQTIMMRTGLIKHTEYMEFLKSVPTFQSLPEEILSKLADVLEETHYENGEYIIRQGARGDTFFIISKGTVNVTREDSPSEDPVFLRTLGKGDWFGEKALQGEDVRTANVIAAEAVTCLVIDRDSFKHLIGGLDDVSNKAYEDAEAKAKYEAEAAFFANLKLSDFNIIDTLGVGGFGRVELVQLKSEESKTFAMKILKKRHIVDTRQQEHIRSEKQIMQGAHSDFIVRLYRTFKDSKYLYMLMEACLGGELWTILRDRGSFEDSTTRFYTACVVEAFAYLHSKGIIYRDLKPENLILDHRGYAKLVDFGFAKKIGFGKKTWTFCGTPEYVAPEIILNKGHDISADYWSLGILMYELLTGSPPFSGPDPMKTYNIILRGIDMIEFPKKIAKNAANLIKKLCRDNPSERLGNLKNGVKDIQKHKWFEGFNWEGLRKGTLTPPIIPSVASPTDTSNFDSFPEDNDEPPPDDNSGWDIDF

Tests used:
[1] = target: PKG (Homo sapiens, UniProt Q13976); experiment: PKG inhibition: transfer of gamma-32P from ATP to peptide substrate
[2] = target: PKG 1α (Homo sapiens, UniProt Q13976); experiment: PKG 1α activity towards BPDEtide; conditions: read-out: IC50 PKG 1α; 30 μM ATP; BPDEtide substrate
[3] = read-out: PKG inhibition (IC50), Table 6
[4] = read-out: Activity: IC50 vrs PKG, Series B, 30 μM ATP
[5] = read-out: PKG inhibition (IC50), Table 3
[6] = read-out: PKG inhibition (IC50), Table 4

## O=C(N[C@@H]1CNC[C@H]1NC(=O)c1ccc2[nH]nc(-c3ccc(F)cc3)c2c1)c1ccc2[nH]nc(-c3ccc(F)cc3)c2c1
[1]; [3]
  IC50: > 10 µM

## Cc1n[nH]c2ccc(C(=O)N[C@@H]3CNC[C@H]3NC(=O)c3ccc4[nH]nc(C)c4c3)cc12
[1]; [3]
  IC50: > 10 µM

## O=C(N[C@@H]1CNC[C@H]1NC(=O)c1ccc2[nH]ncc2c1)c1ccc2[nH]ncc2c1
[1]; [3]
  IC50: 1 µM

## O=C(NC1CCN(C(=O)c2ccc(O)cc2)C1)c1cc(O)c(C(=O)c2c(O)cccc2C(=O)O)c(O)c1 (stereo not shown)
[1]; [4]
  IC50: ≥ 5 µM
[1]; [5]
  IC50: > 5 µM

## O=C(O)c1cccc(O)c1C(=O)c1c(O)cc(C(=O)N2CCN(C(=O)c3ccc(O)cc3)CC2)cc1O
[1]; [5]
  IC50: > 10 µM

## O=C(O)c1cccc(O)c1C(=O)c1c(O)cc(C(=O)N2CCCN(C(=O)c3ccc(O)cc3)CC2)cc1O
[1]; [5]
  IC50: > 10 µM

## O=C(C=CNc1ccc2[nH]ncc2c1)c1ccco1
[2]
  IC50: 2 µM
[1]; 10 μM compound, average of two independent experiments
  inhibition of PKG activity: 100%
[1]; 1 and 10 micromolar compound (FIGS. 10A-B)
  inhibitory activity on PKG (in words): significant inhibitory activity

## COCOc1ccc(OC)c(F)c1C(=O)c1ccc(C(=O)O[C@@H]2CCC[C@H]2NC(=O)c2ccc(O)cc2)cc1 (relative stereo)
[1]; [4]
  IC50: 8 µM
[1]; [6]
  IC50: 8 µM

## COc1ccc2onc(-c3ccc(C(=O)O[C@@H]4CNC[C@H]4NC(=O)c4ccc(O)cc4)cc3)c2c1F (relative stereo)
[1]; [6]
  IC50: > 10 µM
